Results as given in ChEMBL document CHEMBL2029314, “Discovery of HIV fusion inhibitors targeting gp41 using a comprehensive α-helix mimetic library” (Bioorg Med Chem Lett, 2012).

Assay: Displacement of C18-Aib-lucifer yellow from HIV1 envelope glycoprotein gp41 Fe(env2.0)3 by fluorescence assay
Design: species or system Human immunodeficiency virus 1

Row | Ki | Compound
1 | 1.3 µM | CC(C)C[C@H](NC(=O)c1ccc(NC(=O)[C@@H](N)Cc2ccc(O)cc2)c(OCCc2c[nH]c3ccccc23)c1)C(=O)O
2 | 3.9 µM | COc1ccc(C[C@H](N)C(=O)Nc2ccc(C(=O)N[C@@H](CC(C)C)C(=O)O)cc2OCCc2c[nH]c3ccccc23)cc1
3 | 1.3 µM | CC(C)C[C@H](NC(=O)c1ccc(NC(=O)[C@@H](N)Cc2c[nH]c3ccccc23)c(OCCc2c[nH]c3ccccc23)c1)C(=O)O
